# Apparent affinities of Ab-14 variants for a coronavirus HR2 peptide

The measurements come from Engelhart et al. 2022 (doi:10.1038/s41597-022-01779-4) through the FLAb antibody collection.

All variants were tested on one target, the spike HR2 peptide PDVDLGDISGINAS (SARS-CoV-2).

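The parent was found by panning a naive human phage display library on the peptide. In library AAYL50, one, two or three CDR residues were substituted; doubles and triples were drawn at random. Affinity was read by AlphaSeq, a pooled yeast mating assay with surface-displayed partners. The frequency of each diploid, read from paired DNA barcodes, reflects how well the two displayed proteins bind. Scores were corrected for input abundance and mapped to Kd with protein pairs of known affinity run in the same pool. Each pool was mated in three replicate cultures.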

The variants keep the heavy chain, the linker and the frameworks of Ab-14 (scFv order VH, a (GGGGS)3 linker, VL).
VH: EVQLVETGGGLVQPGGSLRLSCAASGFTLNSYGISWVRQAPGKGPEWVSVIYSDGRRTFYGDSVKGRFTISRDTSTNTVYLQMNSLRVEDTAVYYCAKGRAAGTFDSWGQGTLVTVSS
VL: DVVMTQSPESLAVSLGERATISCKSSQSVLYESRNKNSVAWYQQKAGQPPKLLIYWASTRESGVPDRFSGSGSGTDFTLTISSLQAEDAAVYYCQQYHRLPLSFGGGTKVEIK

The parent's light chain CDRs are KSSQSVLYESRNKNSVA, WASTRES, QQYHRLPLS; each variant's own CDRs replace them letter for letter.
Affinities are written as log10 Kd with Kd in nM; a lower number is a better binder.
Where no diploid with the target was found in that replicate, the entry reads "ND": below detection, most likely a poor binder, though not proof of it.
Nonspecific signal, from three strains lacking the peptide, appeared in 18% of pairings of library AAYL50, centred on 4.19 (5% of these signals below 2.99); values are not corrected for it. For each scFv, signals with the empty controls are counted beside the result, with their mean in brackets.

{"CDR-L1": "PSSQSVLYESRNKNSVA", "CDR-L2": "WASTRES", "CDR-L3": "QNYHRLPLS", "log10 Kd, replicates": "ND / 3.36 / 3.83", "signal with controls": "1/9 (4.54)"}
{"CDR-L1": "KSSQSVLYESRNKNSVA", "CDR-L2": "WAATRES", "CDR-L3": "QQYQALPLS", "log10 Kd, replicates": "1.95 / 1.76 / 2.06", "signal with controls": "2/9 (4.59)"}
{"CDR-L1": "KSSQSCLYESRQKNSAA", "CDR-L2": "WASTRES", "CDR-L3": "QQYHRLPLS", "log10 Kd, replicates": "ND / 3.36 / ND", "signal with controls": "1/9 (3.67)"}
{"CDR-L1": "KSLQSVTYESRNKNSVA", "CDR-L2": "WASTRES", "CDR-L3": "QQYHRLPLV", "log10 Kd, replicates": "3.35 / ND / ND", "signal with controls": "1/9 (4.07)"}
{"CDR-L1": "KSSQSVLYESANKNSIA", "CDR-L2": "WASTRES", "CDR-L3": "SQYHRLPLS", "log10 Kd, replicates": "0.54 / 0.82 / 0.67", "signal with controls": "0/9"}
{"CDR-L1": "KSSQSVLYESRNKNSVA", "CDR-L2": "WASTRES", "CDR-L3": "QQYHRHPKS", "log10 Kd, replicates": "ND / 4.98 / ND", "signal with controls": "3/9 (4.40)"}
{"CDR-L1": "KFSQSVLNESRNKNSAA", "CDR-L2": "WASTRES", "CDR-L3": "QQYHRLPLS", "log10 Kd, replicates": "1.34 / 1.72 / 1.53", "signal with controls": "1/9 (3.70)"}
{"CDR-L1": "KSSQSMLYESRNKNWVA", "CDR-L2": "WASTREE", "CDR-L3": "QQYHRLPLS", "log10 Kd, replicates": "2.24 / 2.18 / 2.32", "signal with controls": "1/9 (4.18)"}
{"CDR-L1": "KSSQSVLKESRNKNEVA", "CDR-L2": "WASTRES", "CDR-L3": "QQYHQLPLS", "log10 Kd, replicates": "3.34 / 3.35 / 3.36", "signal with controls": "3/9 (5.72)"}
{"CDR-L1": "KSSQSVLYESHNKNSVA", "CDR-L2": "WASTRIS", "CDR-L3": "QQYHRLPIS", "log10 Kd, replicates": "0.72 / 0.94 / 0.82", "signal with controls": "2/9 (4.00)"}
{"CDR-L1": "KSSQSVLYESRNKNSVH", "CDR-L2": "WASTRES", "CDR-L3": "QQYHRLPLS", "log10 Kd, replicates": "ND / ND / 4.20", "signal with controls": "2/9 (3.46)"}
{"CDR-L1": "KSSQSVLYESRNKNSVA", "CDR-L2": "WASTRSS", "CDR-L3": "CQYHRLPLW", "log10 Kd, replicates": "ND / ND / ND", "signal with controls": "2/9 (3.94)"}
{"CDR-L1": "KSSQSVLTESTNKNSVA", "CDR-L2": "WASTRES", "CDR-L3": "QGYHRLPLS", "log10 Kd, replicates": "ND / ND / ND", "signal with controls": "0/9"}
{"CDR-L1": "KSSQSVLYESENKNSVA", "CDR-L2": "WAKTRPS", "CDR-L3": "QQYHRLPLS", "log10 Kd, replicates": "2.67 / 2.59 / 2.56", "signal with controls": "5/9 (4.23)"}
{"CDR-L1": "KSSQSVLYEPRNKNSDA", "CDR-L2": "WASTRES", "CDR-L3": "QQYHRHPLS", "log10 Kd, replicates": "ND / ND / ND", "signal with controls": "2/9 (4.80)"}
{"CDR-L1": "QSSQSVLYESRNKNSNA", "CDR-L2": "WYSTRES", "CDR-L3": "QQYHRLPLS", "log10 Kd, replicates": "ND / ND / ND", "signal with controls": "2/9 (3.49)"}
{"CDR-L1": "KSSQSVLYYSRNRNSVA", "CDR-L2": "WISTRES", "CDR-L3": "QQYHRLPLS", "log10 Kd, replicates": "4.72 / ND / ND", "signal with controls": "3/9 (4.35)"}
{"CDR-L1": "KSSQSVLEESRNKNSVA", "CDR-L2": "WPATRES", "CDR-L3": "QQYHRLPLS", "log10 Kd, replicates": "ND / 4.94 / ND", "signal with controls": "1/9 (4.16)"}
{"CDR-L1": "KSSQSVLYESRNKNSVA", "CDR-L2": "WASTAES", "CDR-L3": "QQYHPLPLT", "log10 Kd, replicates": "ND / ND / ND", "signal with controls": "0/9"}
{"CDR-L1": "KCQQSVLYESRNKNSVA", "CDR-L2": "WASTRES", "CDR-L3": "QQYHRLPLS", "log10 Kd, replicates": "0.25 / 0.64 / 0.60", "signal with controls": "0/9"}
{"CDR-L1": "KSSQSVLYESRNKNSVS", "CDR-L2": "WASTRES", "CDR-L3": "QQYHRLPLS", "log10 Kd, replicates": "3.53 / 3.32 / 4.83", "signal with controls": "4/9 (4.41)"}
{"CDR-L1": "KSSQSVLYESRNKNSQA", "CDR-L2": "WASTRES", "CDR-L3": "QQYHRLPSI", "log10 Kd, replicates": "4.29 / ND / ND", "signal with controls": "3/9 (3.40)"}
{"CDR-L1": "KSMQSVLYESRNKNSVA", "CDR-L2": "WASTREF", "CDR-L3": "QQYHWLPLS", "log10 Kd, replicates": "3.39 / 2.61 / 3.55", "signal with controls": "2/9 (3.57)"}
{"CDR-L1": "KSSTSVLYESRNKNSVA", "CDR-L2": "WASTRES", "CDR-L3": "QPYHRHPLS", "log10 Kd, replicates": "ND / 3.96 / 4.58", "signal with controls": "2/9 (4.61)"}
{"CDR-L1": "KTSQSVLSISRNKNSVA", "CDR-L2": "WASTRES", "CDR-L3": "QQYHRLPLS", "log10 Kd, replicates": "1.29 / 1.61 / 1.16", "signal with controls": "1/9 (3.17)"}
{"CDR-L1": "KSSQSVLYESRNKNSVN", "CDR-L2": "WASTRES", "CDR-L3": "QWYMRLPLS", "log10 Kd, replicates": "ND / ND / ND", "signal with controls": "0/9"}
{"CDR-L1": "KSSQSVLYESRNKNSVC", "CDR-L2": "WASKRES", "CDR-L3": "QQYHRLQLS", "log10 Kd, replicates": "ND / ND / 4.10", "signal with controls": "0/9"}
{"CDR-L1": "QSSQSVLYESRNKNSVA", "CDR-L2": "WAPTRES", "CDR-L3": "QQCHRLPLS", "log10 Kd, replicates": "ND / ND / ND", "signal with controls": "1/9 (4.34)"}
{"CDR-L1": "KTSQVVLYESRNKNSVA", "CDR-L2": "WASTRES", "CDR-L3": "QQCHRLPLS", "log10 Kd, replicates": "ND / ND / ND", "signal with controls": "0/9"}